# Compound activity from PubChem BioAssay.
# ALR H2O2 inh = blocks human ALR sulfhydryl oxidase activity; inhibition, % (no concentration beside the values); hit rate 3.8% among 290,000; purified ALR, DTT oxidation, H2O2 HRP-luminol luminescence; AID 485317; P55789;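 active = mean and each replicate at 75% or more; inconclusive = only one of the two met; inactive = neither met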;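 note: stock transfer was 7.5 nL into about 7.5 µL; 0% = neutral wells and 100% = wells with inactivated enzyme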
# MC4R antag cAMP = blocks human MC4R cAMP signaling. P32245. 360,000 compounds, 0.48% hits. AID 540295. MC4R-expressing cells, MTII-stimulated cAMP, LANCE TR-FRET. inhibition, % at 6.5 µM;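 active means inhibition above its plate's cutoff, the mean of tested wells on that plate plus 3 SD, cut at about 29% in these data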;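 further: 0% = Melanotan II alone and 100% = Melanotan II plus saturating MCL0020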
#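 System: U2OS-MC4R stable cell line; Technique: Eu-cAMP/anti-cAMP TR-FRET, emission 671 nm; Repeats: single well per compound; Also added: Melanotan II; Dosing: one concentration, 6.5 µM nominal; Schedule: 30-min compound, 1-h challenge, 1-h detection, room temperature.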
# HDAC3 inh = human HDAC3 inhibition. inhibition, % at 8.3 µM. O15379. recombinant HDAC3, fluorogenic peptide/trypsin coupled, fluorescence. 320,000 compounds, 0.15% hits; in the data active means inhibition above about 26%, passing the limit was not always enough
# MC4R ag barr = agonists of human melanocortin 4 receptor (MC4R) beta-arrestin; U2OS MC4R beta-arrestin complementation, luminescence; percent of melanotan II response, DMSO zero; activation, % at 8.9 µM; 360,000 compounds, 0.98% hits; AID 540308;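 active means activation above a per-plate cutoff, the mean activation of sample wells on that plate plus 3 SD, cut at about 8% in these data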
# NALP1 yeast inh = NALP1 inhibition. S. cerevisiae NALP1/ASC/caspase-1 growth, X-gal OD620, 72 h. inhibition, % at 10 µM. 280,000 compounds, 0.61% hits. AID 2071; in the data active means inhibition mostly above about 24%, no sharp cut-off; inactive means mostly below about 32%
# Yeast UUG start = yeast start codon fidelity modulation | S. cerevisiae UUG-firefly luciferase reporter, luminescence/redox ratio | activity score, % at 18.7 µM | hit rate 0.13% among 350,000 | AID 602363;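 active means replicate mean at a twofold rise or more, about +100% in these data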;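 further: firefly luciferase made from a UUG start codon reports start codon fidelity; reporter light over untreated wells divided by growth signal over untreated wells; some hits fall short of that in this replicate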
# The depositor's hits bear a star; nt = not tested or not shown. A selection: hits, their analogues and other compounds. The true share with any hit is near 4.2%.
# Values run as follows: ALR H2O2 inh	MC4R antag cAMP	HDAC3 inh	MC4R ag barr	NALP1 yeast inh	Yeast UUG start
O=C(C[C@H]1CC[C@@H]2[C@H](COC[C@H](O)CN2Cc2ccc3c(c2)OCO3)O1)Nc1ccc(-c2ccccc2)cc1
→ nt	nt	nt	nt	nt	-8.0
COc1ccc(NC(=O)N[C@H]2C=C[C@H](CC(=O)NC3CCC3)O[C@H]2CO)cc1
→ nt	nt	nt	nt	nt	-12.3
CN(C)c1cccc(C(=O)NNC(=S)NC2CCCC2)c1
→ 99.3*	9.3	-3.9	-0.1	-14.8	-30.2
CN(C)c1cccc(C(=O)NNC(=O)NC2CCCCC2)c1
→ 13.2	16.6	2.7	2.8	10.3	nt
N#CCC(=O)Nc1ccc(C(=O)NNC(=S)NC2CCCCC2)cc1
→ 93.8*	9.1	0.8	-2.7	nt	-31.2
CC1=CCC[C@@H]2[C@@](C)(CC/C(C)=C/C(=O)O)[C@H](C)CC[C@@]12C
→ nt	-4.9	2.5	-2.1	44.1*	11.4
C[C@@H]1CC[C@@]23COC(=O)C2=CCC[C@@H]3[C@@]1(C)CC/C(=C/CO)CO
→ nt	9.9	-5.5	1.1	nt	-7.1
O=C(NCCCn1ccnc1)/C(=C/c1ccccc1)NC(=O)c1ccccc1
→ 4.2	13.2	0.4	-0.7	8.6	nt
CN(C)c1ccc(/C=C(\NC(=O)c2ccccc2)C(=O)NCCCn2ccnc2)cc1
→ 99.0*	-3.8	-2.5	-1.2	8.3	-22.0
N/C(=N\NS(=O)(=O)c1cc(C(F)(F)F)cc(C(F)(F)F)c1)c1ccccn1
→ 85.2*	-5.0	1.5	-0.1	-20.1	-28.1
N/C(=N\NS(=O)(=O)c1ccccc1)c1ccccn1
→ 59.4	1.6	1.1	1.5	nt	-26.2
Cc1sc(N)nc1-c1ccc(Oc2ccccc2)cc1
→ 41.6	-6.8	9.8	0.1	95.4*	0.2
COc1ccc(NC(=O)N(C)C[C@H]2Oc3ncc(-c4ccc(C#N)cc4)cc3C(=O)N([C@@H](C)CO)C[C@@H]2C)cc1
→ nt	nt	nt	nt	nt	9.8
CO[C@@H]1CN(C)C(=O)c2cc(NC(=O)C3CC3)ccc2OC[C@@H](C)N(C(=O)Nc2ccc(C(F)(F)F)cc2)C[C@H]1C
→ nt	nt	nt	nt	nt	9.2
COc1cc(NC(=O)c2cc3ccccc3o2)c(OC)cc1Br
→ -7.0	2.5	8.4	19.8*	25.1	-17.0
COc1cc(NC(=O)c2cccc([N+](=O)[O-])c2)ccc1NC(=O)c1cc2ccccc2o1
→ -5.0	-1.1	2.5	2.0	12.0	-17.7
COc1cc(NC(=O)c2cccc(C)c2)ccc1NC(=O)c1cc2ccccc2o1
→ -7.5	8.0	2.3	11.3*	-2.4	-15.2
CCCNC(=O)N1C[C@@H](C)[C@@H](OC)CN(C)C(=O)c2ccc(NC(=O)CCC)cc2OC[C@@H]1C
→ nt	nt	nt	nt	nt	6.7
C[C@@H]1CN([C@@H](C)CO)C(=O)c2cc(NS(C)(=O)=O)ccc2O[C@H]1CN(C)S(=O)(=O)c1ccccc1
→ nt	nt	nt	nt	nt	-4.3
CC(C)CCOc1ccc(NC(=O)C2OC3OC(C)(C)OC3C3OC(C)(C)OC23)cc1 (stereo not given)
→ -4.5	8.3	3.1	-0.8	8.8	-7.0
CC(C)CCOc1ccc(CO[C@@H]2[C@H]3OC(C)(C)O[C@H]3O[C@@H]2C(O)CO)cc1 (stereo not given in full)
→ 86.6*	6.7	6.1	0.8	16.6	6.6
CO[C@H]1CN(C)C(=O)c2cc(NS(C)(=O)=O)ccc2OC[C@H](C)N(CC2CCCCC2)C[C@@H]1C
→ nt	nt	nt	nt	nt	1.6
COc1cc(/C=c2\s/c(=C\C(=O)C(C)(C)C)[nH]c2=O)cc(OC)c1OC
→ -17.0	-31.9	8.8	-0.9	11.9	nt
COc1ccc(/C=c2\s/c(=C\C(=O)C(C)(C)C)[nH]c2=O)cc1O
→ 89.4*	6.8	nt	-0.5	nt	nt
O=C(C[C@H]1C[C@H]2c3cc(NS(=O)(=O)c4ccc(F)cc4)ccc3O[C@H]2[C@H](CO)O1)N1CCOCC1
→ nt	nt	nt	nt	nt	-7.7
Cc1noc(C)c1S(=O)(=O)N(C)C[C@H]1Oc2ccc(NS(=O)(=O)c3cn(C)cn3)cc2CC(=O)N([C@H](C)CO)C[C@@H]1C
→ nt	nt	nt	nt	nt	4.9
O=C(C[C@@H]1C[C@@H]2c3cc(NC(=O)C4CCOCC4)ccc3O[C@@H]2[C@@H](CO)O1)NCc1ccccc1F
→ nt	nt	nt	nt	nt	23.0
COCCn1cnnc1SCC(=O)c1ccc(S(=O)(=O)N2CCCC2)cc1
→ 87.4*	5.7	-1.5	-1.6	16.8	-7.8
Cn1cnnc1SCC(=O)Nc1cc(S(=O)(=O)N2CCCCC2)ccc1Cl
→ -3.8	6.4	-13.6	-1.8	6.5	-8.0
Cc1cccc(N2CCN(C(=O)Cn3sc4nc(C)cc(C)c4c3=O)CC2C)c1 (stereo not given)
→ 95.4*	2.6	-5.4	0.5	-6.8	-53.8
Cc1cccc(N2CCN(C(=O)Cn3nc(C)n4cccc4c3=O)CC2C)c1 (stereo not given)
→ 91.2*	2.8	nt	0.6	0.2	-9.0
O=C(C[C@H]1C=C[C@@H](NS(=O)(=O)c2ccc(F)cc2)[C@@H](CO)O1)NCc1ccc(Cl)c(Cl)c1
→ nt	nt	nt	nt	nt	8.2
C[C@H]1CN([C@@H](C)CO)C(=O)c2cccc(NC(=O)C3CCOCC3)c2O[C@@H]1CN(C)CC1CC1
→ nt	nt	nt	nt	nt	-13.8
COc1cc(/C=N/N=C2/C(=O)Nc3ccccc32)cc(OC)c1O
→ 95.4*	-30.5	8.9	-4.3	19.2	nt
O=C1Nc2ccccc2/C1=N/N=C/c1cccc(O)c1
→ nt	-8.8	nt	-1.6	-5.6	-11.1
COc1ccc(C2NC(=O)C(C#N)=C(S)N2c2ccccc2)cc1OC (stereo not given)
→ 93.7*	9.7	4.0	1.2	-5.6	nt
O=C(COC(=O)/C=C/c1ccccc1[N+](=O)[O-])Nc1ccc(OC(F)F)cc1
→ nt	1.6	-0.8	4.4	26.6	-19.8
O=C(COC(=O)/C=C/c1ccccc1[N+](=O)[O-])Nc1ccc(OCc2ccccc2)cc1
→ nt	-5.1	-0.6	9.2*	28.6	nt
CCNC(=O)CCS(=O)(=O)c1ccc2ccccc2c1
→ 98.6*	-4.6	3.2	-0.1	-0.5	-9.3
Cn1c(=O)c(=O)n(C)c2cc(S(=O)(=O)CCC(=O)NCc3ccccc3)ccc21
→ 99.0*	8.7	nt	1.6	10.2	-10.9

# Entries listed so far with a nitro group on carbon:
# Values run as follows: ALR H2O2 inh	MC4R antag cAMP	HDAC3 inh	MC4R ag barr	NALP1 yeast inh	Yeast UUG start
COc1cc(NC(=O)c2cccc([N+](=O)[O-])c2)ccc1NC(=O)c1cc2ccccc2o1
→ -5.0	-1.1	2.5	2.0	12.0	-17.7
O=C(COC(=O)/C=C/c1ccccc1[N+](=O)[O-])Nc1ccc(OC(F)F)cc1
→ nt	1.6	-0.8	4.4	26.6	-19.8
O=C(COC(=O)/C=C/c1ccccc1[N+](=O)[O-])Nc1ccc(OCc2ccccc2)cc1
→ nt	-5.1	-0.6	9.2*	28.6	nt

# Two entries picked at random from those above, as already listed:
# Values run as follows: ALR H2O2 inh	MC4R antag cAMP	HDAC3 inh	MC4R ag barr	NALP1 yeast inh	Yeast UUG start
O=C(C[C@H]1C=C[C@@H](NS(=O)(=O)c2ccc(F)cc2)[C@@H](CO)O1)NCc1ccc(Cl)c(Cl)c1
→ nt	nt	nt	nt	nt	8.2
C[C@H]1CN([C@@H](C)CO)C(=O)c2cccc(NC(=O)C3CCOCC3)c2O[C@@H]1CN(C)CC1CC1
→ nt	nt	nt	nt	nt	-13.8

# New compounds follow
# Values run as follows: ALR H2O2 inh	MC4R antag cAMP	HDAC3 inh	MC4R ag barr	NALP1 yeast inh	Yeast UUG start
O=C(C[C@H]1C=C[C@@H](NC(=O)NC2CCCCC2)[C@@H](CO)O1)NCc1ccc(F)cc1
→ nt	nt	nt	nt	nt	10.8
Cc1ccn2c(Nc3ccc4c(c3)OCO4)c(-c3ccccn3)nc2c1
→ 58.0	2.2	8.5	1.3	9.4	-21.2
CCC(C)Sc1ccc(-c2nc3cnccn3c2NC2CCCCC2)cc1 (stereo not given)
→ nt	5.2	3.2	0.1	nt	-36.5
Clc1ccc(-c2nc3cnccn3c2NC2CCCC2)cc1
→ 98.7*	0.7	-0.1	6.5	-5.1	-11.1
Cc1ccn2c(NC3CCCC3)c(-c3ccccn3)nc2c1
→ 97.8*	10.1	12.5	-0.5	-12.1	-45.5
Cc1ccn2c(NC3CCCC3)c(-c3ccncc3)nc2c1
→ 98.4*	4.8	-8.1	-1.1	10.9	-16.0
Cc1ccc(Nc2c(-c3ccccn3)nc3cc(C)ccn23)cc1
→ 98.5*	1.7	8.5	2.7	-3.2	-31.3
CN(C)C(=O)C[C@H]1C=C[C@H](NC(=O)C2CCC2)[C@@H](CO)O1
→ nt	nt	nt	nt	nt	-7.3
